# Test system: HSP27 mRNA expression in A431 tumors
# Assay: A431 xenograft mouse tumor model, HSP27 gene silencing in tumors
# Assay type: in vivo, BALB/c nude mice
# Protocol: The mouse study was performed at CrownBio (China) according to standard protocols and procedures. Model: Subcutaneous A431 Human Epidermoid Carcinoma Xenograft Model in female BALB/c nude Mice. Tumor volume was monitored and tumor samples were collected for gene silencing analysis (see below)
substance,measurement,setting,value
"cetuximab-Cys-(SO1861-L-trifunctional linker-L-HSP27BNA)^3,7: SO1861-L-trifunctional linker-L-HSP27BNA conjugated with its third arm to cysteine residues of cetuximab",reduction of HSP27 gene expression in tumors compared to vehicle control,"1 dosing 30 mg/kg i.p., tumor samples 72h after first dosing",25%
same,reduction in HSP27 mRNA expression in tumors compared to single dosing of mono therapies,"1 dosing 30 mg/kg i.p., versus cetuximab-SO1861 or cetuximab-HSP27BNA conjugates",40%
same,tumor targeted gene silencing,"A431 tumor bearing mice, compared to the controls",efficient tumor targeted gene silencing

# Reference: patent publication US20250195682A1, “IMPROVED CELL-TARGETING BINDING MOLECULE” (priority 2018, published 2025)
